Laboratory results: patent US9580423B2, “Bicyclic heterocycles as FGFR4 inhibitors” (Incyte Corporation, priority 2015, dated 2017)

Sequences of proteins named here, by UniProt entry; tags and fusion partners are left off. Residues count along the entry.
UniProt P22455, 22-802: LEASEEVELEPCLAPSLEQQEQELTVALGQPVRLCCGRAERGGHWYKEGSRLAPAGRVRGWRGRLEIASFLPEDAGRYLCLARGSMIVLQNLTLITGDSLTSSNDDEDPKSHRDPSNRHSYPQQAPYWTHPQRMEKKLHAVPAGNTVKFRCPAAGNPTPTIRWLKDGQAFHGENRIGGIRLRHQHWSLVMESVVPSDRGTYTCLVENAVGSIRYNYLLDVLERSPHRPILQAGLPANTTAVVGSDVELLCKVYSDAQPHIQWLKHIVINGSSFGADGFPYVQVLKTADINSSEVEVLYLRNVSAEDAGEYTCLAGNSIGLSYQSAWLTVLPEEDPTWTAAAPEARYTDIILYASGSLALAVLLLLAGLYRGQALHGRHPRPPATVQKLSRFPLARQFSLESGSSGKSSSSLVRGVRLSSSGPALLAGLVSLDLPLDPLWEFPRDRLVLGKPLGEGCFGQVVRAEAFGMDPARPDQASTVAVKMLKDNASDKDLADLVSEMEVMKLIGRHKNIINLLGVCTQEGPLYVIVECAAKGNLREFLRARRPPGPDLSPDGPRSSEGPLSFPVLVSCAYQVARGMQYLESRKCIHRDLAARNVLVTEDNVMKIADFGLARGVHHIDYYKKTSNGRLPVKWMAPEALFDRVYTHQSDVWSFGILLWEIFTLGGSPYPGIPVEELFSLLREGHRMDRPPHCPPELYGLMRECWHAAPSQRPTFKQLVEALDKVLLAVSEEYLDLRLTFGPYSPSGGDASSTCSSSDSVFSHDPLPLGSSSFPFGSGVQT

Molecular target: FGFR4 (Homo sapiens (Human), UniProt P22455)
Assay: FGFR Enzymatic Assay (FRET peptide phosphorylation), FGFR4
Conditions: read-out: FGFR4 IC50

Compound: C=CC(=O)Nc1cc(-c2cc3c(cn2)CN(c2c(F)c(OC)cc(OC)c2F)C(=O)C32CC2)ccn1 [Example 4, N-(4-(2′-(2,6-difluoro-3,5-dimethoxyphenyl)-3′-oxo-2′,3′-dihydro-1′H-spiro[cyclopropane-1,4′-[2,7]naphthyridine]-6′-yl)pyridin-2-yl)acrylamide]
- pIC50 (pre-incubated for 5 to 10 minutes): > 8.00
- pIC50 (pre-incubated for 4 hours): > 8.00

pIC50: −log10 of the molar value. Like-named read-outs stand apart in the source and are kept apart here.
